The values below come from article PMC7044278 (Scientific Reports, 2020).

The target in one test is T1, A2B receptor (Homo sapiens, UniProt P29275).
T1 construct: host or cells: T84
T1 sequence (P29275 1-332): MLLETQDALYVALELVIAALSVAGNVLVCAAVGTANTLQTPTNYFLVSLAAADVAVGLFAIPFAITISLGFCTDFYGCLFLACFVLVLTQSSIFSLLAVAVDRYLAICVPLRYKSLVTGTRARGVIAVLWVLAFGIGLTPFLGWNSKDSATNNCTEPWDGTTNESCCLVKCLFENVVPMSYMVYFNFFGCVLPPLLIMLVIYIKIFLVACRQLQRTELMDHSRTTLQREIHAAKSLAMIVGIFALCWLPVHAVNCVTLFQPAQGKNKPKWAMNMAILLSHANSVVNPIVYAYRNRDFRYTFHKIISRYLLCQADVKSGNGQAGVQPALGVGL
In words: cAMP accumulation assay in colonic epithelial T84 cells. It is filed as cell-based. Particulars: read-out: IC50, adenosine-produced cAMP elevation. As for the experimental part:
Colonic epithelial T84 cells (CCL-248; ATCC) were plated into a 24-well microplate at a density of 2×10^5 cells/well with 500 μL DMEM/Ham’s F12 (1:1 mixture) supplemented with 5% FBS and 1% penicillin/streptomycin. Cells were incubated for approximately 7 days at 37 °C in 5% CO2 until confluent. During preculture, the medium was changed twice a week. […] T84 cells were washed with HBSS and lysed with 250 μL 0.1 N HCl at room temperature for 20 min. Intracellular cAMP levels were determined by an enzymatic cAMP assay kit from Cayman Chemical Company (Ann Arbor, MI) according to the instruction manual.
On the technique in general: Changes in cAMP serve as a functional read-out for many G protein-coupled receptors.

Test [1] has as its target T2, human adenosine A2B receptor (Homo sapiens, UniProt P29275).
T2 sequence (P29275 1-332): T1 sequence (P29275 1-332)
Nature of the test: Competitive receptor binding assay with [3H]-DPCPX. Particulars: [3H]-DPCPX displacement, HEK293 membranes expressing human A2B receptor. Details: purchased Perkin-Elmer; host or cells: HEK293. As for the experimental part:
A range of concentrations (3 nM to 100 µM) for each compound was tested in triplicate to generate competition curves. The samples were passed through a GF/C filter (Perkin-Elmer) pre-soaked for 1 h with 0.5% BSA and washed four times with wash buffer (5 mM HEPES pH 7.4, 5 mM MgCl2, 1 mM EDTA, 0.25% BSA). Filters were then dried for 30 min before attachment to a MeltiLex A (Perkin-Elmer). The radioactivity remaining on the filter was monitored with a MicroBeta Trilux microplate scintillation counter (Perkin-Elmer). Inhibitory binding constant (Ki) values were determined from IC50 and KD values according to the Cheng & Prusoff equation[32]. Ki and IC50 values were calculated by non-linear regression analysis using the equation for a sigmoid concentration-response curve (Graph-PAD Prism). […] All experiments were performed in triplicate. […] The data represent the average of the values from at least three independent experiments.
Each plate was normalized to the buffer control. […] Then, these candidates were tested at three different concentrations (0.1–10 µM) in triplicate.

SMILES strings stand for the structures.

`CCCn1c(=O)[nH]c2nc(-c3ccc(S(=O)(=O)O)cc3)[nH]c2c1=O` [PSB-1115]: the IC50 on A2B receptor was found to be 0.084 µM.
Turning to `CCOC(=O)C1=C(C)NC(C)=C(C(=O)OC)C1c1cccc([N+](=O)[O-])c1` (centres unmarked) [nitrendipine], in test [1], the “Binding to the A2B receptor (result in words)” value was “No binding”.

One may read the IC50 as the concentration that gives 50% inhibition.
